For orientation: IC50 means the concentration at which inhibition is half-maximal. Read a high IC50 as lower potency.

For assay [1], the system named is SKOV3. Description: In vitro activity test (MTS, 4 days) on SKOV3 cells. Format: cell-based. Conditions: MTS after 4 days. The method, then: (§1) • Cells: from Cell Bank of Chinese Academy of Sciences • Tumor cell culture medium: Gibco • FBS: BIOWEST 2) Preparation of Culture Medium • Growth medium (with 10% FBS, Penicillin/streptomycin (100 U/mL)) • Detection medium (with 1% FBS, Penicillin/streptomycin (100 U/mL)) 3) Operations
(§2) The ultraviolet lamp of biological safety cabinet was turned on 30 minutes in advance for irradiation, and then ventilation was conducted for 3 minutes. The growth medium, detection medium, D-PBS and trypsin were pre-heated in a 37° C. thermostat water bath, surface-disinfected with alcohol and placed same in the biological safety cabinet. […] According to the number previously determined, the cells are plated at a density of 80 ul/well in a 96 well plate, wherein only well E11, F11 and G11 were only added with 80 ul of detection medium, and marginal wells were filled with 150 ul of DPBS. […]
(§3) 4 days later, MTS reagent was taken out, thawed at room temperature away from light, and homogeneously mixed in a vortex mixer. […] After the completion of the reaction, the 96 well plate was taken out, and measured for the absorbance value at OD490 nm using a microplate reader; and data recording, sorting and storage were performed.

The test system of assay [2] is NCI-N87. Description: In vitro activity test (MTS, 4 days) on NCI-N87 cells. Conditions: MTS after 4 days. The class given is cell-based. How it is done: as §1, §2, §3

As to Trastuzumab, the 50% inhibitory concentration (IC50) in assay [1] is more than 1000 nM; in assay [2], 200 to 1000 nM.

Source of the values: patent publication US12268752B2, “Non-natural amatoxin-type antibody conjugate” (SICHUAN BAILI PHARMACEUTICAL CO. LTD., priority 2017, dated 2025).
